Assay results: PMC4148173 (2014)

Chains of the proteins cited; added tags and fusions are not shown. Lines headed by an entry give the natural chain unless they say otherwise; changes in a name come on top.
UniProt P35462, whole entry: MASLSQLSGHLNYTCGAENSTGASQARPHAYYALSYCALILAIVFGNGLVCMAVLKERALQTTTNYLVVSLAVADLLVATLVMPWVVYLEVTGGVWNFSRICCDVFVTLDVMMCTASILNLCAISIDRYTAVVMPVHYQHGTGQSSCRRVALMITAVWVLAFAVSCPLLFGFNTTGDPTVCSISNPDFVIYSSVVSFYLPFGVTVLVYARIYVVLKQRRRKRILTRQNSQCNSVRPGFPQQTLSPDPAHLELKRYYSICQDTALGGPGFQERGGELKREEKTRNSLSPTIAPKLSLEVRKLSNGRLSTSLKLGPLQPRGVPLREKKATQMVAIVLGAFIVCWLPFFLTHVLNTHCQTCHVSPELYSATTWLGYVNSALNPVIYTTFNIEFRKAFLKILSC

Molecular target: human D3R (Homo sapiens, UniProt P35462)
Experiment: [35S]GTPγS binding assay, CHO-hD3 membranes
Format: biochemical

CC(C)(C)c1nc(N2CCN(CCCCNC(=O)[C@H]3CC[C@H](c4ccccc4)CC3)CC2)cc(C(F)(F)F)n1 [Compound 39, trans-N-(4-(4-(2-(tert-Butyl)-6-(trifluoromethyl)pyrimidin-4-yl)piperazin-1-yl)butyl)-4-phenylcyclohexanecarboxamide]
Kb: 19 ± 4 nM
